This is an account of results in patent US9944954B2, “Glycerol 3-phosphate dehydrogenase for butanol production” (BUTAMAX ADVANCED BIOFUELS LLC, priority 2013, dated 2018).

Residue numbers refer to the chain shown, from its start. Names and notes keep the numbering of the source. Values joined by “and” are separate entries in the source; they are usually repeats but may differ in a detail not shown here. Equal entries are not always repeated.

For orientation: Km means the substrate concentration at which the rate is half of its maximum. As a reminder, the Vmax is the rate approached at saturating substrate.

Substrate in data set [1]: NC(=O)C1=CN([C@@H]2O[C@H](COP(=O)(O)OP(=O)(O)OC[C@H]3O[C@@H](n4cnc5c(N)ncnc54)[C@H](O)[C@@H]3O)[C@@H](O)[C@H]2O)C=CC1
The data set can be described thus: cells, lysate or membranes named. In kind it is biochemical, Saccharomyces cerevisiae. Conditions: other: crude cell extract, pH 6.8, 1 mM dihydroxyacetone phosphate, 30.0 °C. How it is done:
(§1) Mutations were introduced at 4 different amino acid positions, according to Table 7. Mutagenesis was performed using a QuikChange Lightning Kit (Cat. #210519, Agilent Technologies, La Jolla, Calif.), according to manufacturer's directions. Mutagenesis primers were obtained from Sigma-Aldrich Co. LLC, St. Louis, Mo. Reactions were thermocycled in a Gene Amp 9700 (Perkin Elmer Applied Biosystems, Norwalk, Conn.). Escherichia coli TOP10 were transformed with 1 μl of QuikChange reaction product according to manufacturer's directions, and transformants were selected on LB agar plates with 100 μg/mL ampicillin. DNA sequences were obtained for multiple isolates from each transformation in order to identify those with the desired mutations.
(§2) Glycerol-3-phosphate production was measured by LC/MS.
The data used in this section are provided in Table 11, and includes measurements of the metabolic products and the in vitro measurements of GPD as described above.

Substrate in data set [2]: NC(=O)C1=CN([C@@H]2O[C@H](COP(=O)(O)OP(=O)(O)OC[C@H]3O[C@@H](n4cnc5c(N)ncnc54)[C@H](O)[C@@H]3O)[C@@H](O)[C@H]2O)C=CC1
The data set can be described thus: cells, lysate or membranes named. In kind it is biochemical, Saccharomyces cerevisiae. Conditions: other: crude cell extract, pH 6.8, 1 mM dihydroxyacetone phosphate, 30.0 °C. On the procedure:
as §1, §2
This is another data set of the same source.

B1: Saccharomyces cerevisiae GPD1 (SEQ ID NO: 195) variant F73A, SEQ ID NO: 197 (Saccharomyces cerevisiae S288C; F73A) (protein)
chain: MSAAADRLNLTSGHLNAGRKRSSSSVSLKAAEKPFKVTVIGSGNWGTTIAKVVAENCKGYPEVFAPIVQMWVAEEEINGEKLTEIINTRHQNVKYLPGITLPDNLVANPDLIDSVKDVDIIVFNIPHQFLPRICSQLKGHVDSHVRAISCLKGFEVGAKGVQLLSSYITEELGIQCGALSGANIATEVAQEHWSETTVAYHIPKDFRGEGKDVDHKVLKALFHRPYFHVSVIEDVAGISICGALKNVVALGCGFVEGLGWGNNASAAIQRVGLGEIIRFGQMFFPESREETYYQESAGVADLITTCAGGRNVKVARLMATSGKDAWECEKELLNGQSAQGLITCKEVHEWLETCGSVEDFPLFEAVYQIVYNNYPMKNLPDMIEELDLHED
notes: integrated at the GPD1 locus of yeast isobutanologen PNY2145 (T12 strains N3_1, E3_1); full length 391 aa
As to B1, the Km in data set [1] amounted to 101 µM.

B2: Saccharomyces cerevisiae GPD1 (SEQ ID NO: 195) variant F129A, SEQ ID NO: 201 (Saccharomyces cerevisiae S288C; F129A) (protein)
chain: B1 chain with A73F, F129A
notes: full length 391 aa
On to B2, for which, in data set [2], the Km is 199 µM and 234 µM; the Vmax is 33000 µM/min and 14000 µM/min.

B3: Saccharomyces cerevisiae GPD1 (SEQ ID NO: 195) variant F73G, SEQ ID NO: 196 (Saccharomyces cerevisiae S288C; F73G) (protein)
chain: B1 chain with A73G
notes: full length 391 aa
B3: in data set [2], the Km stood at 42 µM and the Vmax came out at 9000 µM/min.

B4: Saccharomyces cerevisiae GPD1 (SEQ ID NO: 195) variant N44C, SEQ ID NO: 213 (Saccharomyces cerevisiae S288C; N44C) (protein)
chain: B1 chain with N44C, A73F
notes: full length 391 aa
Regarding B4, in data set [2], the Km was 5 µM and the Vmax came out at 3000 µM/min.

B5: Saccharomyces cerevisiae GPD1 (SEQ ID NO: 195) variant N44A, SEQ ID NO: 212 (Saccharomyces cerevisiae S288C; N44A) (protein)
chain: B1 chain with N44A, A73F
notes: full length 391 aa
Turning to B5, in data set [2], the Km worked out at 14 µM and the maximal velocity (Vmax) was 6000 µM/min.

B6: Saccharomyces cerevisiae GPD1 (SEQ ID NO: 195) variant F129K, SEQ ID NO: 203 (Saccharomyces cerevisiae S288C; F129K) (protein)
chain: B1 chain with A73F, F129K
notes: full length 391 aa
For B6, in data set [2], the Km is 136 µM and the Vmax was 14000 µM/min.

B7: Saccharomyces cerevisiae GPD1 (SEQ ID NO: 195) variant F129G, SEQ ID NO: 200 (Saccharomyces cerevisiae S288C; F129G) (protein)
chain: B1 chain with A73F, F129G
notes: full length 391 aa
Regarding B7, in data set [2], the Km was found to be 200 µM and the maximal velocity (Vmax) was determined as 21000 µM/min.
